# Tests used:
# Protein sequences, listed by entry. Tags and fused reporters are not part of them.
# UniProt P48039, whole entry: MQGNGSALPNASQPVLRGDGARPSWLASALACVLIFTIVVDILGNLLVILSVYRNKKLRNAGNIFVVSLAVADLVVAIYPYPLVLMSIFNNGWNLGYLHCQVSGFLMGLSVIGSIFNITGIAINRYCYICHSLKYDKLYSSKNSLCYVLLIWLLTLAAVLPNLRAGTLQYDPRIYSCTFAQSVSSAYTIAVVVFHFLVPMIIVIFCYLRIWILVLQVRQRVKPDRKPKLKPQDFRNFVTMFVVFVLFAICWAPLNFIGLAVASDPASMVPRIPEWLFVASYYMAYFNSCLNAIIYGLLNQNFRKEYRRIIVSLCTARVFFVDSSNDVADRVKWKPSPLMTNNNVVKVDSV
# MT1 Receptor = MT1 Receptor (Homo sapiens, UniProt P48039); test: biochemical; conditions: MT1 Receptor Binding Ki (M)
# [1] = biological target: human Melatonin receptor 1 (MT1) (Homo sapiens, UniProt P48039); test: biochemical
# Description: Method II MT1 GTPγ^35S-SPA Assay Test Validation Standards
# Test compounds were synthesized in house. […] 2 μl of diluted compounds were transferred to Optic-assay-plates.
# (Freshly add protease inhibitor cocktail tables from Roche). […] The protein concentration of the membrane was determined. The membranes were aliquoted and stored at −80° C.
# • MAX response (100% effect) was determined as the effect of 3 nM of 2-lodomelatonin. • MIN response (0% effect) was determined as the effect of vehicle control. Description of Experimental Procedure
# The final concentration of GTPγ^35S was 200 pM.
compound,measurement,setting,value
CCCNC(=O)c1nnc2c(-c3ccc(OC)cc3OC)c(F)ccc2c1N,Ki,MT1 Receptor,9e-08 M
same,EC50,[1]; MT1 Receptor GTPgS EC50 (M),1.55e-08 M
same,Emax,[1]; read-out: MT1 Receptor GTPgS Emax,54%

# From patent US7425556B2 (priority 2005, dated 2008)
